## Reported logP (octanol/water) values for industrial, environmental and drug-like chemicals

Data: OPERA 2.9 data sets, kmansouri/OPERA on GitHub.

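The OPERA project collected these measurements from public sources as training and test data for property models. One number stands for a compound and property, with no spread given. How each value was measured is not recorded, so precision varies. Where a salt, mixture or single isomer is drawn, the source does not say that exactly this form was tested. Unmarked limits or estimates from the upstream databases cannot be ruled out.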

logP is the log10 of the octanol-water partition coefficient; higher is more lipophilic. "–" marks a cell with nothing listed here.

log Kow,SMILES,name
-2.5,O=C([O-])CN(CCCN(C(=O)[O-])C(=O)[O-])C(=O)[O-].[Fe+3].[NH4+],"Ammonium 1,3-propylenediaminetetraacetatoferrate"
6.33,C[SiH]1O[SiH](C)O[SiH](C)O[SiH](C)O[SiH](C)O1 (stereo not drawn),"Cyclopentasiloxane, 2,4,6,8,10-pentamethyl-"
3.7,Nc1c(I)c(C(=O)Cl)c(I)c(C(=O)Cl)c1I,"5-Amino-2,4,6-triiodoisophthaloyl dichloride"
0.196,NCCCCC(N)C(=O)O.O=C(O)COc1nn(Cc2ccccc2)c2ccccc12,[(1-Benzyl-1H-indazol-3-yl)oxy]acetic acid--lysine (1/1)
-2.69,CC(C)NCC(O)c1ccc(O)c(O)c1.Cl (stereo not drawn),Isoproterenol hydrochloride
-0.4,Nc1cccc2c1CN(C1CCC(=O)NC1=O)C2=O (stereo not drawn),Lenalidomide
3.9,CCCCc1ncc(/C=C(\Cc2cccs2)C(=O)O)n1Cc1ccc(C(=O)O)cc1,Eprosartan
-0.77,COB(OC)OC,Trimethyl borate
-2.22,CCCCC[N+](C)(C)C.[I-],"N,N,N-Trimethylpentan-1-aminium iodide"
0.399,CC(=O)[O-].CCN(CC[n+]1ccccc1)c1ccc(/N=N/c2ccc([N+](=O)[O-])cc2Cl)cc1,–
3.08,ClC1C=CC(Cl)C(Cl)C1Cl (stereo not drawn),–
3.39,C1=CCCC2OC2CCC=CCC1 (stereo not drawn),"1,2-Epoxy-5,9-cyclododecadiene"
5.35,CCCCCCS,1-Hexanethiol
-4.94,OCC[S-].[Na+],2-Mercaptoethanol sodium salt
4.57,O=C(Nc1ccc2nn(C3CCCCC3)nc2c1)c1ccc([N+](=O)[O-])cc1,N-(2-Cyclohexyl-2H-benzotriazol-5-yl)-4-nitrobenzamide
2.34,CC(C)(C)C(=O)OCn1cc2c(=O)n(COC(=O)C(C)(C)C)cnc2n1,–
5.04,C=COCC(CC)CCCC (stereo not drawn),1-Ethenoxy-2-ethylhexane
-1.51,CC(=O)N1C[C@H](O)C[C@H]1C(=O)O,Oxaceprol
3.3,CN(C)CCN(Cc1ccccc1)c1ccccn1,Tripelennamine
1.297,CC(=O)[O-].CCN(CCO)c1ccc(/N=N/c2sc3cc(OC)ccc3[n+]2C)cc1,–
1.8,CCOC(=O)C(C)C,Ethyl isobutyrate
-1.1,OC[C@H]1O[C@@H](n2cnc3c2NC=NC[C@H]3O)C[C@@H]1O,Pentostatin
0.36,Nc1cc(N2CCOCC2)nc(N)[n+]1[O-],"2,4-Pyrimidinediamine, 6-(4-morpholinyl)-, 3-oxide"
-3.96,Nc1nc(Cl)nc(Nc2ccc(S(=O)(=O)[O-])c(/N=N/c3c(S(=O)(=O)[O-])cc4cc(S(=O)(=O)[O-])c(/N=N/c5cc(S(=O)(=O)[O-])ccc5S(=O)(=O)[O-])c(N)c4c3O)c2)n1.[Na+].[Na+].[Na+].[Na+].[Na+],C.I. Reactive Blue 176
3.08,OC1=NC(Oc2c3ccccc3cc3ccccc23)C1 (stereo not drawn),–
4.62,C=C(C)c1ccc(Cl)cc1,4-Chloro-alpha-methylstyrene
0.83,CNc1nc(OC)ccc1N.Cl.Cl,HC Blue 7
0.51,COCCNCc1cc2sc(S(N)(=O)=O)cc2s1,–
-1.84,CCCCCC[N+](C)(C)C.[I-],"N,N,N-Trimethylhexan-1-aminium iodide"
5.39,Nc1ccc(Cc2ccc(N)c(Cl)c2Cl)c(Cl)c1Cl,"Benzenamine, 4,4'-methylenebis(2,3-dichloro-"
-0.9,Cc1cc(O)ccc1/N=N/c1ccc(Nc2ccc(S(=O)(=O)[O-])cc2[N+](=O)[O-])cc1.[Na+],–

Excerpt, the opening 3 entries:

SMILES,name,log Kow
O=C([O-])CN(CCCN(C(=O)[O-])C(=O)[O-])C(=O)[O-].[Fe+3].[NH4+],"Ammonium 1,3-propylenediaminetetraacetatoferrate",-2.5
C[SiH]1O[SiH](C)O[SiH](C)O[SiH](C)O[SiH](C)O1 (stereo not drawn),"Cyclopentasiloxane, 2,4,6,8,10-pentamethyl-",6.33
Nc1c(I)c(C(=O)Cl)c(I)c(C(=O)Cl)c1I,"5-Amino-2,4,6-triiodoisophthaloyl dichloride",3.7